The values below come from patent publication US4056540A, “4-Phenyl-1,3-benzodioxans” (Bristol-Myers Company, priority 1975, dated 1977).

This data set is described as follows: in vivo. To be noted: mouse, po, 24 hours observation.

In turn, `O=C1NC(=O)C(c2ccccc2)(c2ccccc2)N1` [Diphenylhydantoin Na, reference compound] came in with an LD50 at 24 h of 540 mg/kg.
